# Yeast mating assay 1: variants of the scFv Ab-14

The target is the same throughout: PDVDLGDISGINAS, from the HR2 region of SARS-CoV-2 spike.

The variants keep the heavy chain, the linker and the frameworks of Ab-14 (scFv order VH, three GGGGS repeats, VL).
VH: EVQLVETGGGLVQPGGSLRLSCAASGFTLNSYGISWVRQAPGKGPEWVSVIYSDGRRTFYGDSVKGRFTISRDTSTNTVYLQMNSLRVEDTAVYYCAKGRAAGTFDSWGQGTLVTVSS
VL: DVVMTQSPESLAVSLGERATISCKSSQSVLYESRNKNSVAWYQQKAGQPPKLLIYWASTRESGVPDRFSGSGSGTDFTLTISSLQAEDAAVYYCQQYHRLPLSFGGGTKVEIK

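The starting antibody came from a phage panning campaign against this peptide. Library AAYL50 holds single substitutions and randomly drawn double and triple substitutions in the CDRs. Affinity was read by AlphaSeq, a pooled yeast mating assay with surface-displayed partners. The frequency of each diploid, read from paired DNA barcodes, reflects how well the two displayed proteins bind. The ratio of observed to expected reads was calibrated, replicate by replicate, on BCL2-family standards whose Kd was known from biolayer interferometry. The assay was run in three technical replicates.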

Variants are written as CDR1, CDR2 and CDR3 of the light chain (limits as in the source). Parent: KSSQSVLYESRNKNSVA, WASTRES, QQYHRLPLS. Scale: log10 of Kd in nM, estimated from mating counts; low values are strong binders. A mean of the replicates is given; it leaves out those without a signal. "ND" marks a missing value. The strain was present, yet no cells mated with the target were sequenced in that replicate, which points to weak or no binding. As a blank, each scFv also met three strains without target: over library AAYL50, 18% of these pairings were detected, typically at 4.19 and seldom below 2.99. Also given: how often the same scFv was detected with the empty control strains, with their mean in brackets. For reference, the parent read 0.65 as the reference entry and 1.68 as a member of this library.

| CDR-L1 | CDR-L2 | CDR-L3 | log10 Kd (nM) by replicate | mean log10 Kd (nM) | empty controls |
|---|---|---|---|---|---|
| KSSQSVLYKSRNKNSVA | WHSTRNS | QQYHRLPLS | ND / ND / ND | ND | 1 of 9 (2.80) |
| KSSQSVLKMSRNKNSVA | WASTRES | QQYHRLPSS | 2.17 / 2.62 / 2.77 | 2.52 | 2 of 9 (2.61) |
| KSSQSVLYESRNKNSMT | WASTRES | QQYHRMPLS | ND / ND / ND | ND | 0 of 9 |
| KSSQSVLYESHNKNSEA | WASTRES | QQYDRLPLS | ND / 4.33 / ND | 4.33 | 2 of 9 (4.82) |
| KSDQSVLYQSRNMNSVA | WASTRES | QQYHRLPLS | 2.58 / 2.18 / 2.28 | 2.35 | 2 of 9 (3.47) |
| KSSQSVLYISRNKNSVA | WASCRES | QQYSRLPLS | ND / ND / ND | ND | 0 of 9 |
| KSSNSVLYERRNKNSVA | WASTRES | QQYHRLLLS | 2.85 / 2.36 / 2.50 | 2.57 | 9 of 9 (4.38) |
| KSSQSVLYVSRNKNSVA | WASTREV | QQYHRLPLS | 2.68 / 2.60 / 3.40 | 2.89 | 3 of 9 (3.05) |
| KSSQSMLYESRNKNSVA | WVSTRES | QQYHSLPLS | 0.93 / 1.07 / 0.84 | 0.95 | 1 of 9 (3.06) |
| KSSQSVLYESRNKNSVL | WFSTRES | QQYERLPLS | 4.22 / ND / ND | 4.22 | 1 of 9 (4.34) |
| KSSQNVLYESRNKNSVA | WASTRES | QQIHRLPLS | ND / ND / ND | ND | 3 of 9 (4.54) |
| KSSQSVLYESRNKNSVG | WASTRES | QQYWRLPLS | ND / ND / ND | ND | 1 of 9 (3.29) |
| KSSQSVLYEGRNENSVA | WASTRES | QQYMRLPLS | 3.11 / 2.62 / ND | 2.87 | 1 of 9 (3.37) |
| KSSQSVLYEPRNKNSVA | WASTRES | NQYHRTPLS | 4.58 / ND / ND | 4.58 | 4 of 9 (4.99) |
| KSIQSVLYESRNKNSVD | WASTRSS | QQYHRLPLS | ND / ND / ND | ND | 5 of 9 (4.57) |
| KSSQSVLYESRNKNSVY | WASAREC | QQYHRLPLS | ND / ND / 4.16 | 4.16 | 1 of 9 (3.73) |
| KSSQSVLYESRNKNSVA | WASTRES | QQYHRLTNW | 0.20 / 0.71 / 0.06 | 0.33 | 0 of 9 |
| KSSQSVLYESRYKNSVA | WASWRES | QQHHRLPLS | 3.20 / 2.62 / ND | 2.91 | 0 of 9 |
| KSWQSVLYESRNMNSVA | WVSTRES | QQYHRLPLS | 2.27 / 2.24 / 2.51 | 2.34 | 2 of 9 (3.42) |
| KSSQSKIYESRNKNSVA | WASTRES | QQYHRNPLS | 4.34 / 5.25 / ND | 4.80 | 3 of 9 (3.70) |
| KSSQAVWYESRNGNSVA | WASTRES | QQYHRLPLS | 1.45 / 1.44 / 1.44 | 1.44 | 5 of 9 (4.90) |
| KSSLSVLYESRNKNCVA | WASTRES | QQGHRLPLS | ND / ND / ND | ND | 0 of 9 |
| KSSQSVLSESRNKNSVT | WASTRES | QQYYRLPLS | ND / ND / ND | ND | 1 of 9 (3.82) |
| KSSQSVLYESRNKWSVA | WASTRES | QQYHLLPVS | ND / ND / ND | ND | 0 of 9 |
| KISQSVLYYSRNKNSVA | WASTRES | QQYHRLALS | 0.54 / 0.78 / 0.66 | 0.66 | 2 of 9 (4.63) |
| KSSQSVLYESRNKNSCA | WPSTRES | QQNHRLPLS | ND / ND / ND | ND | 0 of 9 |
| KSIQSVLYECRNSNSVA | WASTRES | QQYHRLPLS | 5.61 / ND / ND | 5.61 | 1 of 9 (3.39) |
| KSMQSVLYESHNKNSVA | WASTRMS | QQYHRLPLS | 0.32 / 0.89 / 0.42 | 0.54 | 0 of 9 |
| KSSQSKLYESFNKNSVA | WASVRES | QQYHRLPLS | 0.43 / 0.77 / 0.67 | 0.62 | 5 of 9 (4.54) |
| KSSQWVLYESRNKNSVA | CASTRES | QQYHRLPLS | ND / ND / ND | ND | 0 of 9 |
| KSSQSVLYESCNKPSVA | WISTRES | QQYHRLPLS | ND / ND / ND | ND | 1 of 9 (5.27) |
| KSTQSVLYESRNKNSVA | WASCRES | QQYHTLPLS | 2.26 / 2.03 / 1.85 | 2.04 | 0 of 9 |
| KSSQDVLYESRNKNSVA | WASTREM | QVYHRLPLS | ND / ND / ND | ND | 0 of 9 |
| KSSQKVLYESRNINSVA | WASTRES | QQYHRLPLS | 1.47 / 1.42 / 1.40 | 1.43 | 2 of 9 (3.74) |
| KSSQSVLYESRNKSSVA | WASTQES | QQYHRLTLS | 3.59 / 2.79 / 3.65 | 3.34 | 5 of 9 (5.04) |
| KSSQSVLYEKRNKNSMA | WASTRES | QFYHRLPLS | ND / ND / ND | ND | 1 of 9 (2.96) |
| KSSISVLYESRNKNSVC | WASTRYS | QQYHRLPLS | 3.51 / 2.69 / 2.72 | 2.97 | 2 of 9 (4.47) |
| QSSQNVLYESRNKNSVA | WASTRES | QQYHRHPLS | ND / ND / 4.79 | 4.79 | 4 of 9 (4.22) |
| KSSQSVQYESRNKNSVA | WASTCES | QQYHRLPLF | 4.30 / 3.75 / 4.30 | 4.12 | 6 of 9 (4.26) |
| KSSQSVLYESRNKNSVA | WASTRES | AQYHVLPPS | 0.81 / 1.22 / 0.87 | 0.97 | 3 of 9 (3.99) |
| KSSQSVLYESRNKHSVA | WASTRSS | QQYHHLPLS | ND / 2.32 / ND | 2.32 | 0 of 9 |
| KSSQSVLYESRRKNSQA | WASTRES | SQYHRLPLS | ND / ND / 4.59 | 4.59 | 3 of 9 (4.43) |
| KSSQSVLYESRNKQSVA | WASTRES | QQYHALPGS | 1.58 / 1.96 / 2.05 | 1.87 | 2 of 9 (3.68) |
| VSSQSVLYENRNKTSVA | WASTRES | QQYHRLPLS | 2.35 / 2.59 / 2.45 | 2.47 | 1 of 9 (2.68) |
| IYSQSVKYESRNKNSVA | WASTRES | QQYHRLPLS | 2.26 / 2.19 / 2.02 | 2.16 | 0 of 9 |
| KSSRSVLYESRNKNSRF | WASTRES | QQYHRLPLS | ND / ND / ND | ND | 0 of 9 |
| KQSQSVLYESRNKNSVG | WAYTRES | QQYHRLPLS | ND / 4.95 / ND | 4.95 | 2 of 9 (3.11) |
| KSSQSVFYGSRNKNSVE | WASTRES | QQYHRLPLS | ND / 3.88 / ND | 3.88 | 3 of 9 (4.72) |

6 of these entries, quoted again:

{"CDR-L1": "KSSQSVFYGSRNKNSVE", "CDR-L2": "WASTRES", "CDR-L3": "QQYHRLPLS", "log10 Kd (nM) by replicate": "ND / 3.88 / ND", "mean log10 Kd (nM)": "3.88", "empty controls": "3 of 9 (4.72)"}
{"CDR-L1": "IYSQSVKYESRNKNSVA", "CDR-L2": "WASTRES", "CDR-L3": "QQYHRLPLS", "log10 Kd (nM) by replicate": "2.26 / 2.19 / 2.02", "mean log10 Kd (nM)": "2.16", "empty controls": "0 of 9"}
{"CDR-L1": "KQSQSVLYESRNKNSVG", "CDR-L2": "WAYTRES", "CDR-L3": "QQYHRLPLS", "log10 Kd (nM) by replicate": "ND / 4.95 / ND", "mean log10 Kd (nM)": "4.95", "empty controls": "2 of 9 (3.11)"}
{"CDR-L1": "KSSQSVLYEKRNKNSMA", "CDR-L2": "WASTRES", "CDR-L3": "QFYHRLPLS", "log10 Kd (nM) by replicate": "ND / ND / ND", "mean log10 Kd (nM)": "ND", "empty controls": "1 of 9 (2.96)"}
{"CDR-L1": "KSWQSVLYESRNMNSVA", "CDR-L2": "WVSTRES", "CDR-L3": "QQYHRLPLS", "log10 Kd (nM) by replicate": "2.27 / 2.24 / 2.51", "mean log10 Kd (nM)": "2.34", "empty controls": "2 of 9 (3.42)"}
{"CDR-L1": "KSSQSMLYESRNKNSVA", "CDR-L2": "WVSTRES", "CDR-L3": "QQYHSLPLS", "log10 Kd (nM) by replicate": "0.93 / 1.07 / 0.84", "mean log10 Kd (nM)": "0.95", "empty controls": "1 of 9 (3.06)"}

Values reported by Engelhart et al. 2022, doi:10.1038/s41597-022-01779-4 (FLAb copy).